Tests used:
[1] = organism: Rattus norvegicus; assay: Inhibition of 3[H]8-OH--DPAT and [3H]5-HT binding to 5-hydroxytryptamine 1A receptor and 5-hydroxytryptamine 7 receptor in rat
Method in brief: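 Displacement binding with [3H]-8-OH-DPAT at 5-HT1A in rat hippocampal cells, and with [3H]-5-HT at rat 5-HT7 expressed in CHO or Sf9 cells.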

[2] = target: T1, D(2) dopamine receptor (Homo sapiens, UniProt P14416); assay: Inhibition of [3H]raclopride binding to Dopamine receptor D2A in human
[3] = target: T1, D(2) dopamine receptor; assay: Inhibition of [3H]raclopride binding to human dopamine D2A receptor expressed in Ltk cells; format: cell-based

| Ratio [1] | Ki [2] | Ki [3] | SMILES |
| --- | --- | --- | --- |
| 0.1 | 741 nM | – | CCCN(CCC)[C@H]1COc2c(cccc2-c2ccc(OC)cc2)C1 |
| 44 | 1210 nM | 1210 nM | CCCN(CCC)[C@H]1CCc2c(cccc2-c2c(OC)cccc2OC)C1 |
| 0.42 | 106 nM | – | CCCN(CCC)[C@H]1COc2c(cccc2-c2ccccc2)C1 |
| – | 234 nM | – | O=C1c2ccccc2CCCN1CCN1CCC(n2c(=O)[nH]c3cc(F)ccc32)CC1 |

| SMILES | Ratio [1] | Ki [2] | Ki [3] |
| --- | --- | --- | --- |
| O=C1c2ccccc2CCCN1CCN1CCC(n2c(O)nc3cc(F)ccc32)CC1 | 214 | – | – |
